Results from PubChem BioAssay AID463215 (Sanford-Burnham Center for Chemical Genomics, 2010).
Only a part is listed here, and it is no random draw. Activity calls are given as the source filed them.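 Rule for the calls: active = inhibition of yeast growth at or above a set limit in either of two replicates at 10 µM; inactive = the rest.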

Experiment: TIM10 isogenic control strain growth inhibition – single concentration, luminescence, S. cerevisiae, counter-screen for tim10-1 synthetic lethality project, confirmation (AID 463215);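 note: isogenic wild-type TIM10 control yeast grown in succinate dextrose medium; this counterscreen used the strain with wild-type TIM10; 0% = yeast with DMSO and 100% = medium wells lacking yeast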
Conditions: BacTiter-Glo luminescence, 24 h, at 10 µM, active compounds read high

For O=[N+]([O-])c1cc([N+](=O)[O-])c(-c2cnn(-c3ccccc3)c2)c([N+](=O)[O-])c1, which inhibition is on record?
The inhibition was active: 73.2%.

With O=[N+]([O-])c1cc([N+](=O)[O-])c(Nc2ccccn2)c([N+](=O)[O-])c1 as the compound, how does the inhibition read?
Its inhibition is active: 42.3%.
